Results published in PMC8508734 (International Journal of Molecular Sciences, 2021).

By UniProt entry, the sequences of proteins in these tests, tags left out. Where a name states a change or a piece, a line headed by the entry shows the natural chain unless it says otherwise.
UniProt Q9QYN8: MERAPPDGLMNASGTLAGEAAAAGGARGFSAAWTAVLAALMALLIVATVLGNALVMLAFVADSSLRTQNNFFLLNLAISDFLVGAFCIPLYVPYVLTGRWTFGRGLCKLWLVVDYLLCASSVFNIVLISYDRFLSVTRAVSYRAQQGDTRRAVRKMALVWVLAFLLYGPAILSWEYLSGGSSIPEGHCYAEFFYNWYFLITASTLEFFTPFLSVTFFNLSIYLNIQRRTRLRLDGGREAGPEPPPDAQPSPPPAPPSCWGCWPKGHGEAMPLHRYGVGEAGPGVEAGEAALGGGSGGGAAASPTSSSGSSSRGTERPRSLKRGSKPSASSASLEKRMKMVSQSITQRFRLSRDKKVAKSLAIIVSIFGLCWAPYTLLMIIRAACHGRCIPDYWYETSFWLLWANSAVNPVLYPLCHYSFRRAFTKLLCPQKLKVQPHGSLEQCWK

Target: histamine H3 receptor (H3R) (Rattus norvegicus, UniProt Q9QYN8)
Test: cell-based
Set-up: gene Hrh3

For `N=C(N)SCCc1cnc[nH]1` [imetit], the EC50 was 4 ± 2 nM.
